According to patent US20150366827A1, “COMPOSITIONS AND METHODS FOR MIXING AND APPLYING MIXED OXIDANT COMPOSITIONS FOR DAIRY ANIMAL TREATMENT” (GEA Farm Technologies, Inc., priority 2009, published 2015):

Experiment: Loss of mixed oxidant activity on exposure to additives (iodometric thiosulfate titration)
Assay type: physicochemical
Parameters: concentration or dose not given beside the values
Settings: antimicrobials, 2 days exposure to mixed oxidant
Protocol: The activity of a mixed oxidant system is preferably measured with an iodometric titration by the addition of excess iodide and acid and titration of the resulting iodine (in the form of triiodide) with sodium thiosulfate. This method can measure the various oxidants in the mixture, comprising chlorine.
A teat dip composition is defined as stable when the activity of the mixed oxidant decreases by less than about 25% over a 12 hour to 72 hour period. The Tables 1 through 3, and 5 below show the stability of mixed oxidants when exposed to various additives for 12 hours to 96 hours. […] In each Table 1 through 5, the beginning mixed oxidant titrated at between 3800 ppm to 4100 ppm measured as available chlorine.

Substance: alkyl dimethyl amine oxide
- % Loss of Activity at (23° C.): 4%
